Measurements reported in patent US20060166861A1, “Inclusion compound of porphyrin metal complex and albumin” (priority 2005, published 2006).

Test: Rat blood exchange model, safety in vivo (general symptoms, weight change, blood biochemical values)
Parameters: species or system Crj: Wistar male rats
Details: rats, 20% blood exchange; until 7 days after the blood exchange; comparison among groups
Method: A rat blood exchange model was used for rHSA-FecycP obtained in Example 1, and safety of rHSA-FecycP in vivo was evaluated by weight change and blood biochemical values as indices.
rHSA-FecycP obtained in Example 1 was used as a test substance, and recombinant human serum albumin (25% preparation, available from BIPHA CORPORATION, hereinafter, referred to as rHSA) was used as a control substance. The test substance was oxygenated, stored at 4° C., and used within 8 hours after the oxygenation. 25% rHSA was diluted five times with physiological saline (Otsuka normal saline, available from Otsuka Pharmaceutical Factory, Inc.) and prepared into an administration liquid of concentration of 5% in use.
Crj: Wistar male rats (7 week old) were purchased from Charles River Japan, Inc., and 36 well-grown rats were subjected to a blood exchange test. The rats were classified into three groups of a control group (no blood exchange performed), an rHSA group (blood exchange performed by using rHSA), and a cyc group (blood exchange performed by using rHSA-FecycP) with 12 rats for each group. […]
Weight of each rat was measured before the blood exchange, and 1 day, 3 days, and 7 days after the completion of the blood exchange. […]
AST, ALT, LDH, LAP, CRN, and BUN in plasma were quantitatively determined. […]

For “rHSA: recombinant human serum albumin (25% preparation, BIPHA CORPORATION), control substance, diluted to 5%”, the change in weight was “no significant difference”.
